## Antibody variant affinities, Ab-14 heavy chain, assay B

Source: Li et al. 2023 (doi:10.1038/s41467-023-39022-2), MIT Lincoln Laboratory and A-Alpha Bio; data file from the FLAb repository.

Target peptide (SARS-CoV-2 spike, HR2 region): PDVDLGDISGINAS

The variants keep the light chain, the linker and the frameworks of Ab-14 (scFv order VH, three GGGGS repeats, VL).
VH: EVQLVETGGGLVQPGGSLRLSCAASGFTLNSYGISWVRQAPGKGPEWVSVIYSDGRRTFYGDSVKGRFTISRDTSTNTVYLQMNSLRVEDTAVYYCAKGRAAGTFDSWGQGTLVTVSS
VL: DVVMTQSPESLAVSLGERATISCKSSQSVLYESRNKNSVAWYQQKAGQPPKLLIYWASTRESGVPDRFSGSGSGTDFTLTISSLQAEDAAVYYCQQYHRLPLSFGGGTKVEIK

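The starting antibody came from a phage panning campaign against this peptide. Designed CDR sequences, proposed from the first random library and measured here. Their group label is 14H_En_Gen (En: ensemble of fine-tuned language models; Gen: genetic algorithm). Affinity was read by AlphaSeq, a pooled yeast mating assay with surface-displayed partners. Pairs that bind mate more often; barcode pairs of the diploids are counted by sequencing. Scores were corrected for input abundance and mapped to Kd with protein pairs of known affinity run in the same pool. Mating was done six times.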

Variants are written as CDR1, CDR2 and CDR3 of the heavy chain (limits as in the source). Parent: GFTLNSYGIS, VIYSDGRRTFYGDSVK, GRAAGTFDS. Affinities are written as log10 Kd with Kd in nM; a lower number is a better binder. Averages over replicates are reported, and they cover detected replicates only. Where no diploid with the target was found in that replicate, the entry reads "nd": below detection, most likely a poor binder, though not proof of it. Three control strains display no target. For all heavy chain designs, 1% of the pairings with them gave a signal, with a median of 2.08 and one signal in twenty below 0.84, so weak values seen in few replicates may be background. Also given: how often the same scFv was detected with the empty control strains, with their mean in brackets.

| # | CDR-H1 | CDR-H2 | CDR-H3 | log10 Kd (nM) by replicate | mean log10 Kd (nM) | empty controls |
|---|---|---|---|---|---|---|
| 1 | GFDLDEYGIS | VIYADGMRTAYSDSVK | GANAGTFDM | -0.31 -0.30 -0.28 -0.53 -0.63 -0.21 | -0.38 | 0/18 |
| 2 | GFDLDEYGIS | VIYADGSRTAYADSVK | GNNAGTFDL | 0.09 -0.15 -0.57 -0.15 -0.56 -0.56 | -0.32 | 0/18 |
| 3 | GFNLDEYGIS | VIYADGVRTAYADSVK | GETAGTFDV | 0.36 0.17 -0.27 0.26 -0.32 0.12 | 0.05 | 0/18 |
| 4 | GFDLNEYGIS | VIYADGRRTFYADSVK | GNEAGTFDV | -0.21 -0.60 -0.34 -0.39 -0.36 -0.19 | -0.35 | 0/18 |
| 5 | GFDLNEYGIS | VIYADGSRTAYADNVK | GNVAGTFDI | 0.61 -0.33 -0.29 -0.12 -0.23 -0.28 | -0.11 | 0/18 |
| 6 | GFDLDEYGIS | VIYADGKRTAYIDSVK | GENAGTFDV | 0.39 0.49 0.27 -0.03 -0.15 0.09 | 0.18 | 0/18 |
| 7 | GFDLNEYGIS | VIYADGMRTAYTDSVK | GQVAGTFDI | -0.19 -0.40 -0.50 -0.39 -0.78 -0.17 | -0.40 | 0/18 |
| 8 | GFDLDEYGIS | VIYADGVRTAYTDSVK | GENAGTFDI | -0.95 -1.30 -0.95 -1.57 -1.38 -1.05 | -1.20 | 0/18 |
| 9 | GFDLNEYGIS | VIYADGMRTAYADSVK | GSNAGTFDV | -0.46 -0.80 -0.77 -0.31 -0.10 0.02 | -0.41 | 0/18 |
| 10 | GFDLNEYGIS | VIYADGVRKAYADNVK | GENAGTFDV | -0.38 -0.42 -0.56 -0.73 -0.34 -0.52 | -0.49 | 0/18 |
| 11 | GFDLNEYGIS | VIYADGMRTAYTDSVK | GENAGTFDI | -0.44 -0.12 -0.37 -0.50 -0.22 -0.33 | -0.33 | 0/18 |
| 12 | GFDLDEYGIS | VIYADGMRTAYTDSVK | GNVAGTFDT | -0.67 0.29 -0.56 -1.16 -0.15 -0.40 | -0.44 | 0/18 |
| 13 | GFDLNEYGIS | VIYADGQRTVYADSVK | GNVAGTFDM | 0.01 -0.34 -0.24 -0.48 -0.55 0.03 | -0.26 | 0/18 |
| 14 | GFDLNEYGIS | VIYADGKRTAYIDSVK | GNTAGTFDV | -0.03 -0.54 -0.72 0.21 -0.57 -0.35 | -0.33 | 0/18 |
| 15 | GFDLNEYGIS | VIYADGKRTSYADSVK | GNVAGTFDI | -0.10 0.49 0.42 -0.27 -0.11 -0.42 | 0.00 | 0/18 |
| 16 | GFDLNEYGIS | VIYADGKRTAYSDDVK | GNQAGTFDV | -0.03 -0.68 -0.42 -0.64 -0.52 0.05 | -0.37 | 0/18 |
| 17 | GFDLNEYGIS | VIYADGMRTAYSDKVK | GENAGTFDL | -0.25 -0.33 -0.53 0.01 -0.55 -0.26 | -0.32 | 0/18 |
| 18 | GFDLNEYGIS | VIYADGMRTYYADSVK | GTNAGTFDQ | nd 0.36 0.05 -0.41 -0.17 0.09 | -0.02 | 0/18 |
| 19 | GFDLNEYGIS | VIYADGVRTAYADSVK | GQNAGTFDM | -0.31 -0.04 -0.39 -0.60 -0.55 -0.05 | -0.32 | 1/18 (3.82) |
| 20 | GFDLNEYGIS | VIYADGMRTAYTDSVK | GETAGTFDQ | -0.57 -0.63 -0.38 -0.53 -0.67 -0.43 | -0.53 | 0/18 |
| 21 | GFDLDEYGIS | VIYADGKRTAYADDVK | GSNAGTFDV | 0.22 -1.03 -1.07 -0.42 0.37 0.17 | -0.29 | 0/18 |
| 22 | GFDLDEYGIS | VIYADGMRTAYADSVK | GEVAGTFDI | 0.49 0.61 0.25 1.13 0.74 0.89 | 0.69 | 0/18 |
| 23 | GFDLNEYGIS | VIYADGVRTAYADDVK | GENAGTFDM | -0.39 -0.47 -0.31 -0.39 -0.54 -0.26 | -0.40 | 0/18 |
| 24 | GFDLNEYGIS | VIYADGKRTAYIDSVK | GNVAGTFDI | -0.63 -0.89 -0.43 -0.97 -0.97 -0.40 | -0.72 | 0/18 |
| 25 | GFDLNEYGIS | VIYADGKRTSYADDVK | GNVAGTFDV | -0.51 -0.56 -0.42 -0.11 -0.27 0.00 | -0.31 | 1/18 (1.44) |
| 26 | GFDLDEYGIS | VIYADGRRTAYSDSVK | GENAGTFDQ | 0.32 -0.13 -0.39 -0.29 -0.20 0.03 | -0.11 | 0/18 |
| 27 | GFDLDEYGIS | VIYADGMRKAYADDVK | GNVAGTFDV | -0.71 -0.96 -1.15 -1.21 -0.86 -1.01 | -0.98 | 0/18 |
| 28 | GFDLNEYGIS | VIYADGMRTYYADSVK | GEVAGTFDM | -0.84 -1.12 -1.30 -1.52 -0.57 -0.42 | -0.96 | 0/18 |
| 29 | GFDLNEYGIS | VIYADGMRSAYADSVK | GNVAGTFDL | -0.26 -0.41 -0.02 -0.61 -0.45 -0.07 | -0.30 | 1/18 (2.10) |
| 30 | GFDLDEYGIS | VIYADGMRTAYADSVK | GQTAGTFDL | -0.63 -0.38 -0.63 -1.27 -1.00 -0.30 | -0.70 | 0/18 |
| 31 | GFDLNEYGIS | VIYADGSRTAYADSVK | GNTAGTFDM | -0.37 0.25 -0.38 -0.50 -0.04 0.11 | -0.16 | 0/18 |
| 32 | GFDLNEYGIS | VIYADGMRTAYADSVK | GENAGTFDK | -0.22 -0.27 0.09 -0.29 -0.16 0.06 | -0.13 | 0/18 |
| 33 | GFDLNEYGIS | VIYADGVRTFYADSVK | GSNAGTFDV | -0.31 -0.62 -0.05 -0.17 -0.30 -0.11 | -0.26 | 0/18 |
| 34 | GFDLDEYGIS | VIYADGMRTAYADNVK | GNVAGTFDV | 0.23 0.23 -0.12 -0.15 0.13 0.25 | 0.09 | 0/18 |
| 35 | GFDLDEYGIS | VIYADGMRTSYADSVK | GENAGTFDL | 0.23 0.08 -0.08 0.01 -0.15 0.26 | 0.06 | 0/18 |
| 36 | GFDLNEYGIS | VIYADGVRSAYADSVK | GNVAGTFDI | -0.03 -0.10 -0.27 -0.45 -0.11 0.08 | -0.15 | 2/18 (1.44) |
| 37 | GFDLNEYGIS | VIYADGMRTYYADDVK | GNQAGTFDV | 0.14 0.01 -0.05 -0.34 -0.18 -0.14 | -0.09 | 0/18 |
| 38 | GFDLDEYGIS | VIYADGRRTAYADDVK | GNVAGTFDL | 0.47 1.21 0.34 0.34 -0.17 0.60 | 0.47 | 1/18 (2.24) |
| 39 | GFDLNEYGIS | VIYADGMRTAYADDVK | GSNAGTFDL | -0.15 -0.12 -0.40 -0.52 -0.41 -0.05 | -0.27 | 0/18 |
| 40 | GFDLDEYGIS | VIYADGKRTAYADSVK | GENAGTFDT | -0.16 -0.25 -0.12 -0.40 0.03 -0.34 | -0.21 | 0/18 |
| 41 | GFDLNEYGIS | VIYADGKRTAYIDSVK | GNVAGTFDL | -0.14 -0.82 -0.63 -1.10 -0.56 -0.48 | -0.62 | 0/18 |
| 42 | GFDLDEYGIS | VIYADGVRTAYADKVK | GENAGTFDV | -0.20 -0.62 -0.24 -0.51 0.25 -0.60 | -0.32 | 0/18 |
| 43 | GFDLDEYGIS | VIYADGKRTAYQDSVK | GNVAGTFDV | -0.31 -0.66 -0.35 -0.46 -0.87 -0.37 | -0.50 | 0/18 |
| 44 | GFDLNEYGIS | VIYADGVRTAYADSVK | GQVAGTFDM | -0.28 0.49 -0.21 -0.11 0.23 0.10 | 0.04 | 0/18 |
| 45 | GFDINEYGIS | VIYADGMRTAYADSVK | GNVAGTFDI | -0.23 -0.31 -0.28 -0.27 -0.39 0.00 | -0.25 | 1/18 (2.85) |
| 46 | GFDLDEYGIS | VIYADGMRTAYSDSVK | GSNAGTFDI | -0.10 0.22 -0.25 -0.28 -0.13 0.19 | -0.06 | 0/18 |
| 47 | GFDLDEYGIS | VIYADGMRTAYVDSVK | GNNAGTFDV | -0.19 -0.68 -0.68 -0.70 -0.74 -0.90 | -0.65 | 0/18 |
| 48 | GFDLNEYGIS | VIYADGMRTAYVDNVK | GEVAGTFDV | 0.31 -0.34 -0.83 -0.03 -0.13 -0.10 | -0.19 | 0/18 |

A selection of 6 entries from above:

| CDR-H1 | CDR-H2 | CDR-H3 | log10 Kd (nM) by replicate | mean log10 Kd (nM) | empty controls |
|---|---|---|---|---|---|
| GFDLNEYGIS | VIYADGMRTAYSDKVK | GENAGTFDL | -0.25 -0.33 -0.53 0.01 -0.55 -0.26 | -0.32 | 0/18 |
| GFDLDEYGIS | VIYADGMRTAYADSVK | GEVAGTFDI | 0.49 0.61 0.25 1.13 0.74 0.89 | 0.69 | 0/18 |
| GFDLDEYGIS | VIYADGMRTSYADSVK | GENAGTFDL | 0.23 0.08 -0.08 0.01 -0.15 0.26 | 0.06 | 0/18 |
| GFDLNEYGIS | VIYADGMRTAYADSVK | GSNAGTFDV | -0.46 -0.80 -0.77 -0.31 -0.10 0.02 | -0.41 | 0/18 |
| GFDLNEYGIS | VIYADGMRTYYADDVK | GNQAGTFDV | 0.14 0.01 -0.05 -0.34 -0.18 -0.14 | -0.09 | 0/18 |
| GFDLDEYGIS | VIYADGMRTAYSDSVK | GANAGTFDM | -0.31 -0.30 -0.28 -0.53 -0.63 -0.21 | -0.38 | 0/18 |

Of ten entries with the parent sequence, four were seen in most replicates (averages 0.34 to 2.37), three in one and three in none, so single entries are noisy. The authors averaged sequences with at least three values out of six and counted those with two or fewer as poor binders. Values of this round are not directly comparable with the first-round values of the same sequences.